# Data from PubChem BioAssay AID624267 (The Scripps Research Institute Molecular Screening Center, 2012).
# Amino acid sequences for entries named in this document (tags omitted).
# UniProt O43353, whole entry: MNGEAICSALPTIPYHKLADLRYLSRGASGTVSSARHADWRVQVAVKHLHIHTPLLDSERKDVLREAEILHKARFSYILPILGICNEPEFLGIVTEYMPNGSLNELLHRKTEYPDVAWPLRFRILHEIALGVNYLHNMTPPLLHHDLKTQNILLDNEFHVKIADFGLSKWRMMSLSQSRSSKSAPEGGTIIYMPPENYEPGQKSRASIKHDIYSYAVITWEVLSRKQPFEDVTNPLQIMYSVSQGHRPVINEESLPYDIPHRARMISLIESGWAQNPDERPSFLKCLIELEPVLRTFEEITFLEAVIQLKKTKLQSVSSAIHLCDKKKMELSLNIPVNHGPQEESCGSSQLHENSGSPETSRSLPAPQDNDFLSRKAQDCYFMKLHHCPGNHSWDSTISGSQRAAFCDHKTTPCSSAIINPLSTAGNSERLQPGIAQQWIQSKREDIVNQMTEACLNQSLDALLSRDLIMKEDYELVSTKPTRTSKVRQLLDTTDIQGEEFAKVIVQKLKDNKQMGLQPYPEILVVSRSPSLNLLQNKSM
# Only a part is listed here, and it is no random draw. Some results for these compounds are left out of this collection, so the calls shown say nothing about other tests. Activity calls are given as the source filed them. No stated cut-off is given here; in the data, active means inhibition above about 21%; inactive means the rest.
# Molecular target: Receptor-interacting serine/threonine-protein kinase 2 (Homo sapiens) (UniProt O43353)
# Experiment: NOD2-RIPK2 binding disruptors in cells, primary screen, fluorescence, CHO cells, BLA complementation (AID 624267);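 further: 0% = vehicle only and 100% = reference blocker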
# Conditions: CHO BLA complementation NOD2-RIPK2, CCF4 ratio; at 4.98 µM; active compounds read high
row,SMILES,inhibition
1,O=C(OC1CN2CCC1CC2)C(CO)(c1ccccc1)c1ccccc1 (stereo unspecified),inactive: 0.62%
2,C=C(C)C#CC(O)(C(=O)OC1CCN(C)CC1)c1ccccc1 (stereo unspecified),inactive: -15.3%
3,COc1ccc(Br)c(C(=O)NCC2(N3CCCCC3)CCCCC2)c1,inactive: -0.91%
4,O=C(OCCN1CCCC1)C(O)(c1ccccc1)c1ccccc1,inactive: -3.58%
5,CC(C)Oc1ccc(C(=O)NCC2(N(C)C)CCCCC2)cc1,inactive: -10.4%
6,CN(C)c1cccc(C(=O)NCC2(N(C)C)CCCCC2)c1,inactive: 10.5%
7,CN(C)C1(CNC(=O)c2ccc(Br)cc2)CCCCC1,inactive: -10.6%
8,COc1cc(C(=O)NCC2(N(C)C)CCCCC2)c([N+](=O)[O-])cc1OC,inactive: 10.6%
9,COc1ccc(Cl)cc1C(=O)NCC1(N(C)C)CCCCC1,inactive: -2.7%
10,COc1cccc(C(=O)NCC2(N3CCCCC3)CCCCC2)c1,inactive: -2.25%
11,O=C(NCC1(N2CCCCC2)CCCCC1)c1cccc(Cl)c1,inactive: -9.07%
12,CN(C)C1CCCC1OC(=O)C(O)(c1ccccc1)c1ccccc1 (stereo unspecified),inactive: 1.59%
13,CN(C)c1ccc(C(=O)NCC2(N(C)C)CCCCC2)cc1,inactive: -14.2%
14,Cc1ccccc1C(=O)NCC1(N2CCCCC2)CCCCC1,inactive: -3.81%
15,O=C(NCC1(N2CCCCC2)CCCCC1)c1cc(F)c(F)cc1Cl,inactive: 9.78%
16,C=CCN1CCN(CCOC(=O)C(O)(c2ccccc2)c2ccccc2)CC1,inactive: -16.8%
17,COc1ccc(C(=O)NCC2(N(C)C)CCCCC2)cc1,inactive: -0.15%
18,O=C(NCC1(N2CCCCC2)CCCCC1)c1cccc(Br)c1,inactive: 7.19%
19,Cc1cc(C(=O)NCC2(N3CCCCC3)CCCCC2)ccc1[N+](=O)[O-],inactive: 4.78%
20,CCN1CCCC(OC(=O)C2(O)c3ccccc3C=Cc3ccccc32)C1 (stereo unspecified),inactive: -5.36%
21,O=C(NCC1(N2CCCCC2)CCCCC1)c1cc([N+](=O)[O-])ccc1Cl,inactive: -3.24%
22,CN1[C@@H]2CC[C@H]1CC(OC(=O)C(O)(c1ccccc1)c1ccccc1)C2 (stereo partly specified),inactive: -13%
23,COc1cc(SC)ccc1C(=O)NCC1(N(C)C)CCCCC1,inactive: 0.15%
24,CCN(CC)CC(C)C(C)OC(=O)C(O)(c1ccccc1)c1ccccc1 (stereo unspecified),inactive: 2.28%
25,CC(C)N1C(=O)CC2(CCN(CCOC(=O)C(O)(c3ccccc3)c3ccccc3)CC2)C1=O,inactive: -0.12%
26,Cc1ccc(C(=O)NCC2(N3CCCCC3)CCCCC2)cc1,inactive: -1.13%
